# Membrane permeability of cyclic peptides

Data: CycPeptMPDB; original report Townsend et al. 2020, doi:10.26434/chemrxiv.13335941.v1.

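Conditions beyond the assay type are not listed; see the original paper. Other peptides of the study may be missing here. Peptides that the database sets to -10, its floor, are left out.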

PAMPA is the parallel artificial membrane permeability assay, which has no cells and reads passive diffusion. Permeability is given as log10 of P in cm/s; higher (less negative) is more permeable.

| structure (SMILES) | PAMPA (log10 cm/s) |
|---|---|
| CC(C)C[C@H]1NC(=O)[C@H](C)NC(=O)[C@H](Cc2ccccc2)NC(=O)[C@@H](CC(C)C)NC(=O)[C@H]2CCCN2C(=O)[C@@H](CC(C)C)NC1=O | -6.67 |
| CC(C)C[C@@H]1C(=O)N[C@@H](Cc2ccccc2)CC(=O)N2CCC[C@@H]2C(=O)N[C@H](CC(C)C)C(=O)N[C@@H](Cc2ccccc2)C(=O)N2CCC[C@@H]2C(=O)N(C)[C@H](C)C(=O)N1C | -6.18 |
| CC(C)C[C@@H]1C(=O)N[C@@H](Cc2ccccc2)C(=O)N2CCC[C@@H]2C(=O)N(C)[C@H](C)C(=O)N[C@H](CC(C)C)C(=O)N(C)[C@@H](CC(C)C)C(=O)N2CCC[C@@H]2C(=O)N1C | -5.30 |
| CCCN1CC(=O)N[C@H](CC(C)C)C(=O)N(Cc2ccccc2)CC(=O)N2CCC[C@@H]2C(=O)N(C)[C@H](CC(C)C)C(=O)N[C@@H](Cc2ccccc2)C(=O)N2CCC[C@H]2C1=O | -5.74 |
| CC(C)C[C@H]1NC(=O)[C@H](CC(C)C)N(C)C(=O)[C@H](C)NC(=O)[C@@H]2CCCN2C(=O)[C@H](Cc2ccccc2)NC(=O)[C@H](CC(C)C)N(C)C(=O)[C@@H]2CCCN2C1=O | -5.58 |
| CC(C)C[C@@H]1NC(=O)[C@@H](CC(C)C)N(C)C(=O)[C@H](C)N(C)C(=O)[C@@H]2CCCN2C(=O)[C@H](Cc2ccccc2)NC(=O)[C@@H](CC(C)C)N(C)C(=O)[C@@H]2CCCN2C1=O | -5.47 |
| CC(C)C[C@@H]1C(=O)N2CCC[C@@H]2C(=O)N(C)[C@H](CC(C)C)C(=O)N[C@@H](Cc2ccccc2)C(=O)N2CCC[C@@H]2C(=O)N[C@H](C)C(=O)N(C)[C@H](CC(C)C)C(=O)N1C | -6.12 |
| CC(C)C[C@@H]1NC(=O)[C@H](CC(C)C)N(C)C(=O)C[C@H](Cc2ccccc2)NC(=O)[C@@H]2CCCN2C(=O)[C@H](Cc2ccccc2)NC(=O)[C@@H](CC(C)C)NC(=O)[C@H]2CCCN2C1=O | -5.46 |
| CC(C)C[C@@H]1NC(=O)C[C@H](Cc2ccccc2)NC(=O)[C@H]2CCCN2C(=O)[C@H](Cc2ccccc2)NC(=O)[C@@H](CC(C)C)N(C)C(=O)[C@H]2CCCN2C(=O)[C@@H](CC(C)C)NC1=O | -6.24 |
| CC(C)C[C@H]1C(=O)N(C)[C@@H](CC(C)C)C(=O)N2CCC[C@H]2C(=O)N(C)[C@@H](CC(C)C)C(=O)N[C@@H](Cc2ccccc2)C(=O)N2CCC[C@@H]2C(=O)N[C@@H](Cc2ccccc2)CC(=O)N1C | -5.28 |
| CC(C)C[C@@H]1NC(=O)[C@@H](C)NC(=O)[C@@H]2CCCN2C(=O)[C@H](Cc2ccccc2)NC(=O)CN(Cc2ccccc2)C(=O)[C@@H]2CCCN2C(=O)[C@@H](CC(C)C)NC1=O | -7.30 |
| CC(C)C[C@@H]1C(=O)N[C@@H](Cc2ccccc2)C(=O)N2CCC[C@H]2C(=O)N[C@@H](Cc2ccccc2)CC(=O)N[C@H](CC(C)C)C(=O)N[C@@H](Cc2ccccc2)CC(=O)N2CCC[C@@H]2C(=O)N1C | -5.61 |
| CC(C)C[C@@H]1C(=O)N(Cc2ccccc2)CC(=O)N2CCC[C@H]2C(=O)N(C)[C@@H](CC(C)C)C(=O)N[C@@H](Cc2ccccc2)C(=O)N2CCC[C@@H]2C(=O)N[C@H](C)C(=O)N1C | -5.82 |
| CCCN1CC(=O)N[C@@H](CC(C)C)C(=O)N[C@@H](Cc2ccccc2)CC(=O)N2CCC[C@@H]2C(=O)N[C@H](CC(C)C)C(=O)N[C@@H](Cc2ccccc2)C(=O)N2CCC[C@H]2C1=O | -6.50 |
| CC(C)C[C@@H]1C(=O)N(C)[C@H](CC(C)C)C(=O)N2CCC[C@H]2C(=O)N(C)[C@H](CC(C)C)C(=O)N[C@@H](Cc2ccccc2)C(=O)N2CCC[C@@H]2C(=O)N[C@@H](Cc2ccccc2)CC(=O)N1C | -5.17 |
| CC(C)C[C@@H]1NC(=O)C[C@H](Cc2ccccc2)NC(=O)[C@H](Cc2ccccc2)NC(=O)[C@H](CC(C)C)NC(=O)[C@@H]2CCCN2C(=O)C[C@H](Cc2ccccc2)NC1=O | -5.93 |
| CC(C)C[C@@H]1C(=O)N[C@H](CC(C)C)C(=O)N2CCC[C@H]2C(=O)N(C)[C@@H](CC(C)C)C(=O)N[C@@H](Cc2ccccc2)C(=O)N2CCC[C@@H]2C(=O)N[C@H](C)C(=O)N1C | -6.20 |
| CC(C)C[C@@H]1NC(=O)[C@@H](CC(C)C)N(C)C(=O)[C@H](C)NC(=O)[C@H](Cc2ccccc2)NC(=O)[C@H](CC(C)C)N(C)C(=O)[C@@H]2CCCN2C1=O | -5.00 |
| CC(C)C[C@@H]1NC(=O)[C@@H](C)NC(=O)[C@H](Cc2ccccc2)NC(=O)[C@@H](CC(C)C)N(C)C(=O)[C@H]2CCCN2C(=O)[C@@H](CC(C)C)N(C)C1=O | -6.27 |
| CC(C)C[C@H]1NC(=O)[C@H](C)N(C)C(=O)[C@@H]2CCCN2C(=O)[C@H](Cc2ccccc2)NC(=O)CN(Cc2ccccc2)C(=O)[C@@H]2CCCN2C(=O)CN(Cc2ccccc2)C1=O | -6.28 |
| CCCN1CC(=O)N[C@@H](CC(C)C)C(=O)N(C)[C@@H](CC(C)C)C(=O)N2CCC[C@@H]2C(=O)N[C@H](CC(C)C)C(=O)N[C@@H](Cc2ccccc2)C(=O)N2CCC[C@H]2C1=O | -5.90 |

Extract of 3 entries:

{"smiles": "CCCN1CC(=O)N[C@H](CC(C)C)C(=O)N(Cc2ccccc2)CC(=O)N2CCC[C@@H]2C(=O)N(C)[C@H](CC(C)C)C(=O)N[C@@H](Cc2ccccc2)C(=O)N2CCC[C@H]2C1=O", "PAMPA (log10 cm/s)": "-5.74"}
{"smiles": "CC(C)C[C@H]1NC(=O)[C@H](CC(C)C)N(C)C(=O)[C@H](C)NC(=O)[C@@H]2CCCN2C(=O)[C@H](Cc2ccccc2)NC(=O)[C@H](CC(C)C)N(C)C(=O)[C@@H]2CCCN2C1=O", "PAMPA (log10 cm/s)": "-5.58"}
{"smiles": "CC(C)C[C@@H]1C(=O)N[C@@H](Cc2ccccc2)C(=O)N2CCC[C@H]2C(=O)N[C@@H](Cc2ccccc2)CC(=O)N[C@H](CC(C)C)C(=O)N[C@@H](Cc2ccccc2)CC(=O)N2CCC[C@@H]2C(=O)N1C", "PAMPA (log10 cm/s)": "-5.61"}